Results as given in ChEMBL document CHEMBL1154476 (Eur J Med Chem, 2008).

Biological target: T1, Ribosyldihydronicotinamide dehydrogenase [quinone] (Homo sapiens, UniProt P16083)
T1 sequence (P16083 whole entry): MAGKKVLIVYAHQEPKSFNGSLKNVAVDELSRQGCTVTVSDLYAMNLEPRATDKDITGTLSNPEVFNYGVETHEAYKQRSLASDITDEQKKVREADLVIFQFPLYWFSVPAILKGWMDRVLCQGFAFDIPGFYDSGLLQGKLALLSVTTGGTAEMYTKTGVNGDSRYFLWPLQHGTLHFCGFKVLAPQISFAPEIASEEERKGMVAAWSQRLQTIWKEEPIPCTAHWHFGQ
Assay: Displacement of [125I]iodomelatonin from MT3/QR2 melatonin binding site expressed in CHO cells
Type: cell-based

IC50: 0.0575 µM
SMILES: COC(=O)Nc1ccc2[nH]cc(CCNC(C)=O)c2c1
